Values quoted from earlier work in patent US20250352536A1, “NEURORESTORATION COMPOSITIONS IMPLEMENTING MULTIPLE NEUROPLASTICITY INDUCING MECHANISMS OF ACTION” (Neuro-Innovators, Inc., priority 2022, published 2025).

Biological target: angiotensin II receptor type 1 (AT1) (Homo sapiens, UniProt P30556)
Settings: selectivity AT1 over AT2

binding affinity greater for AT1 than AT2: 3000 times
Compound: CCCc1nc2c(C)cc(-c3nc4ccccc4n3C)cc2n1Cc1ccc(-c2ccccc2C(=O)O)cc1 [Telmisartan]
